Experimental data as given in article PMC12369477, “Phenylacetic acid metabolism in land plants: novel pathways and metabolites” (Journal of Experimental Botany, 2025).

Key:
UGT74D1 = molecular target: T1, UGT74D1 (Arabidopsis thaliana, UniProt Q9SKC5)
T1 sequence (Q9SKC5 1-456): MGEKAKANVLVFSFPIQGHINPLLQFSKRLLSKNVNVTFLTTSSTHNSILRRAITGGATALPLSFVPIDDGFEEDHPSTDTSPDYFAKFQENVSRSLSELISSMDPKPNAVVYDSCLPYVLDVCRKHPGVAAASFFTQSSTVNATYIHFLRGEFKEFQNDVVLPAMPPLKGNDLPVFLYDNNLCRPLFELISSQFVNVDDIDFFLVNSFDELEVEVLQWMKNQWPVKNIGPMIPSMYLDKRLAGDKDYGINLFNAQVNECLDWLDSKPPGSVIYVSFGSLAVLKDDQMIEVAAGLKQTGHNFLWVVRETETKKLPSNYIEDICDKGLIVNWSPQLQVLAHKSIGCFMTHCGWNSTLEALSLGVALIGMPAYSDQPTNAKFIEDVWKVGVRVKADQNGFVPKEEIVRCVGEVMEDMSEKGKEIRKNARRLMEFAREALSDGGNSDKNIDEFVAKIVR

UGT84B1 = molecular target: T2, UGT84B1 (Arabidopsis thaliana, UniProt O22182)
T2 sequence (O22182 1-456): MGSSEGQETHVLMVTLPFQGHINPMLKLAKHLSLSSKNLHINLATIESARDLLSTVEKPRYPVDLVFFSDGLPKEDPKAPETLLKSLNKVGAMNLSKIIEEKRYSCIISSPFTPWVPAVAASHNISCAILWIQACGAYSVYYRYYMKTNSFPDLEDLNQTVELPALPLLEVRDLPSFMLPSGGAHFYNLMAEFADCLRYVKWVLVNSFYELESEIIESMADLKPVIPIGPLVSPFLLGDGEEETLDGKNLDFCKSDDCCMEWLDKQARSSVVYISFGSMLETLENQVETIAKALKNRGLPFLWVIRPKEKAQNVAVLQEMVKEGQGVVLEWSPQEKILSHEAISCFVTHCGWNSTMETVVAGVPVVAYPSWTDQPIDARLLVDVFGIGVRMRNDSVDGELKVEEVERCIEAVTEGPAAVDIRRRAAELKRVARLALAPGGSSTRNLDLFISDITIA

Structure (SMILES): O=C(O)Cc1ccccc1 [PAA, phenylacetic acid]
- bacterial lysate glucosylation assay, HPLC-MS/MS; knockout line (UGT74D1): proved the capability of AtUGT74D1 to produce PAA-glc
- bacterial lysate glucosylation assay, HPLC-MS/MS; knockout line (UGT84B1): both experiments demonstrated involvement of UGT84B1 and UGT74D1 in PAA glucosylation
